In US20170051065A1 (Hoffmann-La Roche, published 2017):

B1: Mab 2F11 (antibody, V domains shown)
VH: QVQLKESGPGLVAPSQSLSITCTVSGFSLTTYDISWIRQSPGKGLEWLGVIWTDGGTNYNSPFMSRLSIRKDNSKSQVFLKMNRLQTDDTAIYYCVRDQRLYFDVWGAGTTVTVSS
VL: NIVMTQSPKSMSMSVGERVTLNCKASEDVNTYVSWYQQQPEQSPKLLIYGASNRYTGVPDRFTGGGSTTDFTLTISSVQAEDLADYFCGQSFSYPTFGTGTKLEIK
B2: Mab 2E10 (antibody, V domains shown)
VH: QVQLKESGPGLVAPSKSLSITCTVSGSSLDSFDISWIRQSPGKGLEWLGVIWTGGGTNYNSGFMSRLRITKDNSKSQVLLKMNSLQSDDTAIYYCVRDPRLYFDVWGAGTTVTVSS
VL: B1 VL with N22S, N30V, Q39K, E41D, G65S, T68A, F87Y, S91T
B3: Mab 2H7 (antibody, V domains shown)
VH: B2 VH with S40P, T70S, L79F, N83S
VL: B1 VL with N22S, N30V, Q39K, G65S, T68A, V78I, F87Y, S91T
B4: Mab 1G10 (antibody, V domains shown)
VH: B1 VH with Q1R, T31S, T53S, D54G, S68R, R70S, N73D, K75R, M82V, Q99L
VL: KIVMTQSPKSMSVSVGERVSLSCKASEDVGTYVSWYQQKPEQSPKLLIYGSSNRYTGVPDRFTGSGSATDFTLTISSVQAEDLADYSCGQSFTYPTFGTGTKLEIK
B5: hMab 2F11-f12 (antibody, V domains shown)
VH: QVQLVQSGAEVKKPGSSVKVSCKASGFSLTTYDISWVRQAPGQGLEWMGVIWTDGGTNYNSPFMSRVTITKDESTSTAYMELSSLRSEDTAVYYCVRDQRLYFDVWGQGTTVTVSS
VL: DIQMTQSPSSLSASVGDRVTITCRASEDVNTYVSWYQQKPGKAPKLLIYGASSLQSGVPSRFSGSGSGTDFTLTISSLQPEDFATYYCGQSFSYPTFGQGTKLEIK

Tests used:
Experiment in all cases: cell-based or functional assay
[1] = biological target: T1, human wildtype CSF-1R (wt CSF-1R) (human, UniProt P07333 20-972)
[2] = biological target: T1, human wildtype CSF-1R (wt CSF-1R); remark: listed apart in the source
[3] = biological target: T1, human wildtype CSF-1R (wt CSF-1R); remark: listed apart in the source

Row | Binder | IC50 of inhibition of survival of human monocytes cultured with huCSF-1 (CellTiterGlo) [1] [µg/mL] | IC50 CSF-1R Phosphorylation (ELISA phospho/total receptor, NIH3T3-CSF-1R cells stimulated with hu CSF-1) [2] [µg/mL] | IC50 of inhibition of survival of human monocytes cultured with huCSF-1 (CellTiterGlo) [3] [µg/mL]
1 | B1 | 0.08 | 0.219 | 
2 | B2 | 0.06 | 0.752 | 
3 | B3 | 0.03 | 0.703 | 
4 | B4 | 0.06 | 0.0566 | 
5 | B5 |  |  | 0.09

Residue numbers refer to the chain shown, from its start. Like-named read-outs stand apart in the source and are kept apart here.
